Assay results published in patent publication US9694016B2 (Novartis AG, priority 2013, dated 2017).

Amino acid sequences for entries named in this document (tags omitted).
UniProt P04049, whole entry Y340E/Y341E: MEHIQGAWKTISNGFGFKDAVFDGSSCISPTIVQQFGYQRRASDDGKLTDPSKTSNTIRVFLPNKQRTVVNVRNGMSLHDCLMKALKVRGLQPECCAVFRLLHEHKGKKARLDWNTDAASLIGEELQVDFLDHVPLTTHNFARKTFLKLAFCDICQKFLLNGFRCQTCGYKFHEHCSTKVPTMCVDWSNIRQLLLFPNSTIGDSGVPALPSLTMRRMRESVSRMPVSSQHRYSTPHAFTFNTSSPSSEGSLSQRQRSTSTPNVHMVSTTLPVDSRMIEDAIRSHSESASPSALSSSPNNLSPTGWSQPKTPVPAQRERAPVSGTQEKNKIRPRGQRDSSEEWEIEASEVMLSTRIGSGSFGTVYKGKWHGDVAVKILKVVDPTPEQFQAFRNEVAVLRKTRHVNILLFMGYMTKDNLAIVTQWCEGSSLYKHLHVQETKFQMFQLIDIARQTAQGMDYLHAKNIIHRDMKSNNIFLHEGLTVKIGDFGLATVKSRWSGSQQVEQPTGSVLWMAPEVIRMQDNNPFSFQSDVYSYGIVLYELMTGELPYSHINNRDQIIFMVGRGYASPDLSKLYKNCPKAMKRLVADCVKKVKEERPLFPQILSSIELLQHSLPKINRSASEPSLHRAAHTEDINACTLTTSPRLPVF

Target: C-Raf FL (full-length C-Raf protein, Y340E and Y341E activating mutations) (Homo sapiens (Human), UniProt P04049, Y340E/Y341E)
Assay type: biochemical
Conditions: read-out: c-Raf FL IC-50
[1] = AlphaScreen, 60 min pre-incubation, 1 hour reaction

Compound `CCN(C)c1cc(C(=O)Nc2ccc(C)c(-c3cc(N4CCOCC4)c(=O)n(C)c3)c2)ccn1` [Example 453, 2-(ethyl(methyl)amino)-N-(4-methyl-3-(1-methyl-5-morpholino-6-oxo-1,6-dihydropyridin-3-yl)phenyl)isonicotinamide] has a pIC50 [1] of 8.96.

`Cc1ccc(NC(=O)c2ccnc(N3CCC3)c2)cc1-c1cc(N2CCOCC2)c(=O)n(C)c1` [Example 454, 2-(azetidin-1-yl)-N-(4-methyl-3-(1-methyl-5-morpholino-6-oxo-1,6-dihydropyridin-3-yl)phenyl)isonicotinamide] was tested, and the pIC50 [1] was 9.30.

`COCCN(C)c1cc(C(=O)Nc2ccc(C)c(-c3cc(N4CCOCC4)c(=O)n(C)c3)c2)ccn1` [Example 455, 2-((2-methoxyethyl)(methyl)amino)-N-(4-methyl-3-(1-methyl-5-morpholino-6-oxo-1,6-dihydropyridin-3-yl)phenyl)isonicotinamide] gave a pIC50 [1] of 9.15.

`Cc1ccc(NC(=O)c2ccnc(N(C)CCO)c2)cc1-c1cc(N2CCOCC2)c(=O)n(C)c1` [Example 456] was tested, and the pIC50 [1] was 9.10.

Work on `CNCCN(C)c1cc(C(=O)Nc2ccc(C)c(-c3cc(N4CCOCC4)c(=O)n(C)c3)c2)ccn1` [Example 457, 2-(methyl(2-(methylamino)ethyl)amino)-N-(4-methyl-3-(1-methyl-5-morpholino-6-oxo-1,6-dihydropyridin-3-yl)phenyl)isonicotinamide] yielded a pIC50 [1] of 8.20.

In the case of `Cc1ccc(NC(=O)c2ccc(C(O)CO)c(C(F)(F)F)c2)cc1-c1cc(N2CCOCC2)c(=O)n(C)c1` (centres unmarked) [Example 460, 4-(1,2-dihydroxyethyl)-N-(4-methyl-3-(1-methyl-5-morpholino-6-oxo-1,6-dihydropyridin-3-yl)phenyl)-3-(trifluoromethyl)benzamide], the pIC50 [1] was 8.51.

For `Cc1ccc(NC(=O)c2ccc(CN)c(C(F)(F)F)c2)cc1-c1cc(N2CCOCC2)c(=O)n(C)c1` [Example 461, 4-(aminomethyl)-N-(4-methyl-3-(1-methyl-5-morpholino-6-oxo-1,6-dihydropyridin-3-yl)phenyl)-3-(trifluoromethyl)benzamide], the pIC50 [1] was 8.68.

`Cc1ccc(NC(=O)c2ccc(CO)c(C(F)(F)F)c2)cc1-c1cc(N2CCOCC2)c(=O)n(C)c1` [Example 462, 4-(hydroxymethyl)-N-(4-methyl-3-(1-methyl-5-morpholino-6-oxo-1,6-dihydropyridin-3-yl)phenyl)-3-(trifluoromethyl)benzamide] showed a pIC50 [1] of 9.15.

`Cc1ccc(NC(=O)c2cccc(C(F)(F)F)c2)cc1-c1cc(N2CC3CC(C2)O3)c(=O)n(C)c1` [Example 464, N-(3-(5-(6-oxa-3-azabicyclo[3.1.1]heptan-3-yl)-1-methyl-6-oxo-1,6-dihydropyridin-3-yl)-4-methylphenyl)-3-(trifluoromethyl)benzamide] showed a pIC50 of 8.68.

`Cc1ccc(NC(=O)c2ccnc(C(C)(C)C#N)c2)cc1-c1cc(N2CC3CC(C2)O3)c(=O)n(C)c1` [Example 465, N-(3-(5-(6-oxa-3-azabicyclo[3.1.1]heptan-3-yl)-1-methyl-6-oxo-1,6-dihydropyridin-3-yl)-4-methylphenyl)-2-(2-cyanopropan-2-yl)isonicotinamide] was tested, and the pIC50 [1] was 7.82.

`Cc1ccc(C(=O)Nc2ccc(CN)c(C(F)(F)F)c2)cc1-c1cc(N2CCOCC2)c(=O)n(C)c1` [Example 467, N-(4-(aminomethyl)-3-(trifluoromethyl)phenyl)-4-methyl-3-(1-methyl-5-morpholino-6-oxo-1,6-dihydropyridin-3-yl)benzamide] was tested, and the pIC50 [1] was 8.62.

Work on `Cc1ccc(NC(=O)c2cc(CO)cc(C(F)(F)F)c2)cc1-c1cc(N2CCOCC2)c(=O)n(C)c1` [Example 469, 3-(hydroxymethyl)-N-(4-methyl-3-(1-methyl-5-morpholino-6-oxo-1,6-dihydropyridin-3-yl)phenyl)-5-(trifluoromethyl)benzamide] yielded a pIC50 [1] of 9.22.

With `Cc1ccc(NC(=O)c2cc(CN)cc(C(F)(F)F)c2)cc1-c1cc(N2CCOCC2)c(=O)n(C)c1` [Example 470, 3-(aminomethyl)-N-(4-methyl-3-(1-methyl-5-morpholino-6-oxo-1,6-dihydropyridin-3-yl)phenyl)-5-(trifluoromethyl)benzamide] the pIC50 [1] was 9.00.

In the case of `Cc1ccc(NC(=O)c2ccnc(C(C)(F)F)c2)cc1-c1cc(N2CCOCC2)n(C)c(=O)c1` [Example 471, 2-(1,1-difluoroethyl)-N-(4-methyl-3-(1-methyl-6-morpholino-2-oxo-1,2-dihydropyridin-4-yl)phenyl)isonicotinamide], the pIC50 [1] was 9.70.

Work on `Cc1ccc(NC(=O)c2ccnc(C(C)(C)C)c2)cc1-c1cc(N2CCOCC2)n(C)c(=O)c1` [Example 472, 2-(tert-butyl)-N-(4-methyl-3-(1-methyl-6-morpholino-2-oxo-1,2-dihydropyridin-4-yl)phenyl)isonicotinamide] yielded a pIC50 [1] of 9.30.

`Cc1ccc(NC(=O)c2ccccc2)cc1-c1cc(N2CCOCC2)n(C)c(=O)c1` [Example 473, N-(4-methyl-3-(1-methyl-6-morpholino-2-oxo-1,2-dihydropyridin-4-yl)phenyl)benzamide] was tested, and the pIC50 [1] was 8.43.

With `Cc1ccc(NC(=O)c2ccnc(S(C)(=O)=O)c2)cc1-c1cc(N2CCOCC2)n(C)c(=O)c1` [Example 474, N-(4-methyl-3-(1-methyl-6-morpholino-2-oxo-1,2-dihydropyridin-4-yl)phenyl)-2-(methylsulfonyl)isonicotinamide] the pIC50 [1] was 9.22.

`CCC(F)(F)c1cc(C(=O)Nc2ccc(C)c(-c3cc(N4CCOCC4)n(C)c(=O)c3)c2)ccn1` [Example 475, 2-(1,1-difluoropropyl)-N-(4-methyl-3-(1-methyl-6-morpholino-2-oxo-1,2-dihydropyridin-4-yl)phenyl)isonicotinamide] was tested, and the pIC50 [1] was 10.00.

Compound `CCc1cc(C(=O)Nc2ccc(C)c(-c3cc(N4CCOCC4)n(C)c(=O)c3)c2)ccn1` [Example 476, 2-ethyl-N-(4-methyl-3-(1-methyl-6-morpholino-2-oxo-1,2-dihydropyridin-4-yl)phenyl)isonicotinamide] has a pIC50 [1] of 10.00.

`Cc1ccc(NC(=O)c2ccnc(C3CC3)c2)cc1-c1cc(N2CCOCC2)n(C)c(=O)c1` [Example 477, 2-cyclopropyl-N-(4-methyl-3-(1-methyl-6-morpholino-2-oxo-1,2-dihydropyridin-4-yl)phenyl)isonicotinamide] was tested, and the pIC50 [1] was 9.70.

For `Cc1ccc(NC(=O)c2ccnc(C(C)(C)F)c2)cc1-c1cc(N2CCOCC2)n(C)c(=O)c1` [Example 479, 2-(2-fluoropropan-2-yl)-N-(4-methyl-3-(1-methyl-6-morpholino-2-oxo-1,2-dihydropyridin-4-yl)phenyl)isonicotinamide], the pIC50 [1] was 9.52.

Compound `Cc1ccc(NC(=O)c2ccnc(C3(C#N)CC3)c2)cc1-c1cc(N2CCOCC2)n(C)c(=O)c1` [Example 480, 2-(1-cyanocyclopropyl)-N-(4-methyl-3-(1-methyl-6-morpholino-2-oxo-1,2-dihydropyridin-4-yl)phenyl)isonicotinamide] has a pIC50 [1] of 10.00.

`CCn1cc(C(=O)Nc2ccc(C)c(-c3cc(N4CCOCC4)n(C)c(=O)c3)c2)cc(C(F)(F)F)c1=O` [Example 481, 1-ethyl-N-(4-methyl-3-(1-methyl-6-morpholino-2-oxo-1,2-dihydropyridin-4-yl)phenyl)-6-oxo-5-(trifluoromethyl)-1,6-dihydropyridine-3-carboxamide] was tested, and the pIC50 [1] was 9.52.

With `Cc1ccc(NC(=O)c2ccnc(C(C)C)c2)cc1-c1cc(N2CCOCC2)n(C)c(=O)c1` [Example 482, 2-isopropyl-N-(4-methyl-3-(1-methyl-6-morpholino-2-oxo-1,2-dihydropyridin-4-yl)phenyl)isonicotinamide] the pIC50 [1] was 9.70.

`Cc1ccc(NC(=O)c2ccnc(C(C)(C)O)c2)cc1-c1cc(N2CCOCC2)n(C)c(=O)c1` [Example 483, 2-(2-hydroxypropan-2-yl)-N-(4-methyl-3-(1-methyl-6-morpholino-2-oxo-1,2-dihydropyridin-4-yl)phenyl)isonicotinamide] showed a pIC50 [1] of 9.05.

`Cc1ccc(NC(=O)c2cccc(C(F)F)c2)cc1-c1cc(N2CCOCC2)n(C)c(=O)c1` [Example 484, 3-(difluoromethyl)-N-(4-methyl-3-(1-methyl-6-morpholino-2-oxo-1,2-dihydropyridin-4-yl)phenyl)benzamide] showed a pIC50 [1] of 10.00.

`Cc1ccc(NC(=O)c2ccnc(C(F)F)c2)cc1-c1cc(N2CCOCC2)n(C)c(=O)c1` [Example 486, 2-(difluoromethyl)-N-(4-methyl-3-(1-methyl-6-morpholino-2-oxo-1,2-dihydropyridin-4-yl)phenyl)isonicotinamide] gave a pIC50 [1] of 9.52.

Work on `Cc1ccc(NC(=O)c2ccnc(C(C)(C)C#N)c2)cc1-c1cc(N2CCOCC2)n(C)c(=O)c1` [Example 487, 2-(2-cyanopropan-2-yl)-N-(4-methyl-3-(1-methyl-6-morpholino-2-oxo-1,2-dihydropyridin-4-yl)phenyl)isonicotinamide] yielded a pIC50 [1] of 9.10.

`Cc1ccc(NC(=O)c2cnnc(C(C)(C)C#N)c2)cc1-c1cc(N2CCOCC2)n(C)c(=O)c1` [Example 489, 6-(2-cyanopropan-2-yl)-N-(4-methyl-3-(1-methyl-6-morpholino-2-oxo-1,2-dihydropyridin-4-yl)phenyl)pyridazine-4-carboxamide] gave a pIC50 [1] of 9.10.

Compound `CCN1CCN(c2cc(C(=O)Nc3ccc(C)c(-c4cc(N5CCOCC5)n(C)c(=O)c4)c3)cc(C(F)(F)F)c2)CC1` [Example 490, 3-(4-ethylpiperazin-1-yl)-N-(4-methyl-3-(1-methyl-6-morpholino-2-oxo-1,2-dihydropyridin-4-yl)phenyl)-5-(trifluoromethyl)benzamide] has a pIC50 [1] of 9.40.

In the case of `Cc1ccc(NC(=O)c2cc(F)cc(N3CCOCC3)c2)cc1-c1cc(N2CCOCC2)n(C)c(=O)c1` [Example 491, 3-fluoro-N-(4-methyl-3-(1-methyl-6-morpholino-2-oxo-1,2-dihydropyridin-4-yl)phenyl)-5-morpholinobenzamide], the pIC50 [1] was 9.40.

For `Cc1ccc(NC(=O)c2cccc(-c3nnco3)c2)cc1-c1cc(N2CCOCC2)n(C)c(=O)c1` [Example 493, N-(4-methyl-3-(1-methyl-6-morpholino-2-oxo-1,2-dihydropyridin-4-yl)phenyl)-3-(1,3,4-oxadiazol-2-yl)benzamide], the pIC50 [1] was 9.10.

pIC50: −log10 of the molar value. Like-named read-outs stand apart in the source and are kept apart here.
